Biological target: recombinant human TNFα (human, UniProt P01375 77-233)
Experiment: cell-based or functional assay

Amino acid sequences for entries named in this document (tags omitted). Residues count along the entry.
UniProt P01375, 77-233 limits assumed: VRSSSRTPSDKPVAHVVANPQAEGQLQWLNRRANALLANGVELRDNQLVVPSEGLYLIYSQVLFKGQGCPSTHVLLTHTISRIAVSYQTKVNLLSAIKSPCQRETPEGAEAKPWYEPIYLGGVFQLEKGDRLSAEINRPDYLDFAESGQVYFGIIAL

B1: infliximab (antibody, V domains shown)
VH: EVKLEESGGGLVQPGGSMKLSCVASGFIFSNHWMNWVRQSPEKGLEWVAEIRSKSINSATHYAESVKGRFTISRDDSKSAVYLQMTDLRTEDTGVYYCSRNYYGSTYDYWGQGTTLTVSS
VL: DILLTQSPAILSVSPGERVSFSCRASQFVGSSIHWYQQRTNGSPRLLIKYASESMSGIPSRFSGSGSGTDFTLSINTVESEDIADYYCQQSHSWPFTFGSGTNLEVKR
  IC50, TNFα-induced apoptosis in L929 fibroblasts: 0.0362 mg/L

Source: US20190194310A1 (NUMAB INNOVATION, published 2019)
